species: Bos taurus; assay: Inhibition of bovine tubulin polymerization assessed as fold reduction Vmax of polymerization at 10 uM by spectrophotometry relative to untreated control

Compound | fold change (FC)
COc1ccc([C@@H]2[C@@H](c3ccc(O)cc3)C(=O)N2c2cc(OC)c(OC)c(OC)c2)cc1O | 11.8
COc1ccc([C@@H]2[C@@H](c3ccccc3)C(=O)N2c2cc(OC)c(OC)c(OC)c2)cc1O | 8.3
COc1ccc([C@@H]2[C@@H](c3ccccc3)C(=O)N2c2cc(OC)c(OC)c(OC)c2)cc1 | 6.1
COc1ccc(/C=C\c2cc(OC)c(OC)c(OC)c2)cc1O [COMBRETASTATIN A4] | 6
